The chains behind the UniProt entries cited, without tags or fusion partners. Where a name states a change or a piece, a line headed by the entry shows the natural chain unless it says otherwise.
UniProt Q96J66: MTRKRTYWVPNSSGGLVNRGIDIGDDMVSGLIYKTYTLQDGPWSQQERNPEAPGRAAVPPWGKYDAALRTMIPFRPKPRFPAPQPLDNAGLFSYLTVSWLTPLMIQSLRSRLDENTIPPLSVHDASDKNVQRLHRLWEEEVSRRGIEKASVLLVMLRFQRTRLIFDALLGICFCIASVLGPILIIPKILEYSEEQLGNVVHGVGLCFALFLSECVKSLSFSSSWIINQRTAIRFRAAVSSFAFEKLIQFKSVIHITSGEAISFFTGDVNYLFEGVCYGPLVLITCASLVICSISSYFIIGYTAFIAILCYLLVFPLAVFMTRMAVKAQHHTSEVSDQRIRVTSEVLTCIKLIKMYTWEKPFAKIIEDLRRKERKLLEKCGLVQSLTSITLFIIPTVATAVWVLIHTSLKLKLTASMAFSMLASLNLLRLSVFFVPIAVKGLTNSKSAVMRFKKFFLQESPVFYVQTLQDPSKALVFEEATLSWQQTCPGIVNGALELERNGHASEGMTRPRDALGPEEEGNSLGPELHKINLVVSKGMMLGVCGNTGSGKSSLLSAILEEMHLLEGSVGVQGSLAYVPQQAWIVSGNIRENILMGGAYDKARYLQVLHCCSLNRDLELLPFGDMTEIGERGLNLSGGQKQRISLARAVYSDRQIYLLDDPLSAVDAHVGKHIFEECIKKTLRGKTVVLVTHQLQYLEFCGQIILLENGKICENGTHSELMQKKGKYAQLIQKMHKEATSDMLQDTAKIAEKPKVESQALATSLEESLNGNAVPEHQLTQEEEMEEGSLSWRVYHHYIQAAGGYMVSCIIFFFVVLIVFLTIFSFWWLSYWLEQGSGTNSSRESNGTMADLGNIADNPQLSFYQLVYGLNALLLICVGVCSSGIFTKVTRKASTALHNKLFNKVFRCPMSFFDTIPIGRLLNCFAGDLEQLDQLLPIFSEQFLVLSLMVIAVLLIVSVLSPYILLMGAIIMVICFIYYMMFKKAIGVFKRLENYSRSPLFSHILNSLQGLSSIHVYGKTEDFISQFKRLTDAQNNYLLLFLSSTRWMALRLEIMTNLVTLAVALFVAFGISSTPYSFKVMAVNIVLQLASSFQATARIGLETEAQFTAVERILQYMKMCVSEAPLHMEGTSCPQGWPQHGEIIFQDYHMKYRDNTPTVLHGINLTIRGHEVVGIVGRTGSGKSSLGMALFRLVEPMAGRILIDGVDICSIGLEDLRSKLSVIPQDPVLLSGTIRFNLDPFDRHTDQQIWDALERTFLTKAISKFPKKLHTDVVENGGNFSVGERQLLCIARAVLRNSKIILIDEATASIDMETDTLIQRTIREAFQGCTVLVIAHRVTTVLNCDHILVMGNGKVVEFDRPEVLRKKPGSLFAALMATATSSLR

According to paper PMC7468911 (Nutrients, 2020):

Target: ABCC11 (Homo sapiens, UniProt Q96J66)
Assay: inhibition of [3H]-DHEA-S vesicle transport at […]
Assay type: cell-based
Details: 100 µM

Compound	ABCC11-Mediated DHEA-S Transport (% of Control)
O=c1c(O)c(-c2cc(O)c(O)c(O)c2)oc2cc(O)cc(O)c12	0%
O=C(/C=C/c1ccc(O)cc1)c1ccc(O)cc1O	0%
